In the library only some 4.2% were active in any assay of this set; here they are far more common.
MC4R antagonist – blocks human MC4R cAMP signaling; MC4R-expressing cells, MTII-stimulated cAMP, LANCE TR-FRET; inhibition, % at 6.5 µM; 360,000 tested, 0.48% active; AID 540295;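 active means inhibition above its plate's cutoff, the mean of tested wells on that plate plus 3 SD, cut at about 29% in these data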;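 further: 0% = Melanotan II alone and 100% = Melanotan II plus saturating MCL0020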
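material = U2OS cells stably expressing human melanocortin 4 receptor (MC4R) | also added = Melanotan II challenge | dosing = single nominal compound dose of 6.5 µM | detection = TR-FRET with Eu-cAMP and labeled anti-cAMP, 671 nm | replication = singlicate | timing = compound 30 min, challenge 1 h, detection 1 h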
Yeast UUG start – alters start codon recognition fidelity in yeast. S. cerevisiae UUG-firefly luciferase reporter, luminescence/redox ratio. AID 602363. activity score, % at 18.7 µM. hit rate 0.13% among 350,000;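 active = replicate mean at a twofold rise or more, about +100% in these data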;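 note: firefly luciferase made from a UUG start codon reports start codon fidelity; reporter light over untreated wells divided by growth signal over untreated wells; some hits fall short of that in this replicate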
ALR H2O2 inh – human ALR oxidase inhibition via reduced H2O2; P55789; purified ALR, DTT oxidation, H2O2 HRP-luminol luminescence; inhibition, % (concentration not given with the values); 3.8% of 290,000 active; AID 485317;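 active = mean and each replicate at 75% or more; inconclusive = only one of the two met; inactive = neither met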;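 note: stock transfer was 7.5 nL into about 7.5 µL; 0% = neutral wells and 100% = wells with inactivated enzyme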
MC4R ag barr – agonists of human melanocortin 4 receptor (MC4R) beta-arrestin | U2OS MC4R beta-arrestin complementation, luminescence; percent of melanotan II response, DMSO zero | activation, % at 8.9 µM | AID 540308 | P32245 | 360,000 tested, 0.98% active;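 active means activation above a per-plate cutoff, the mean activation of sample wells on that plate plus 3 SD, cut at about 8% in these data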
NALP1 inh – blocks the NALP1 inflammasome reconstituted in yeast. S. cerevisiae NALP1/ASC/caspase-1 growth, X-gal OD620, 72 h. inhibition, % at 10 µM. 280,000 tested, 0.61% active. AID 2071; in the data active means inhibition mostly above about 24%, no sharp cut-off; inactive means mostly below about 32%
HDAC3 inh – inhibitors of human histone deacetylase 3; O15379; recombinant HDAC3, fluorogenic peptide/trypsin coupled, fluorescence; inhibition, % at 8.3 µM; 320,000 tested, 0.15% active; AID 2718; in the data active means inhibition above about 26%, passing the limit was not always enough
* hit, by the source's call; . = not tested or not shown.

Under each structure – NALP1 inh, MC4R ag barr, MC4R antagonist, ALR H2O2 inh, Yeast UUG start, HDAC3 inh
- Cc1ccc(C(=O)NC(=S)NNC(=O)c2ccccc2)cc1
→ -2, 1, 2, 98*, -26, 2
- Cc1ccccc1OCC(=O)NNC(=S)NC(=O)c1ccco1
→ 2, -3, 4, 98*, -31, 3
- O=C(NNC(=O)c1ccco1)c1ccccc1
→ 24, 0, 2, -1, -2, 4
- Cc1ccccc1OCC(=O)Nc1ccccc1NC(=O)c1ccco1
→ 5, 1, -5, 5, -15, 0
- O=C(/C=C/c1ccccc1)NC(=S)NNC(=O)c1ccco1
→ -4, 1, 15, 25, -57, 2
- O=C(/C=C/c1ccc(Br)cc1)NC(=S)NNC(=O)c1ccco1
→ 8, -3, 18, 99*, -21, 5
- O=C(C[C@H]1CC[C@@H]2[C@H](COC[C@@H](O)CN2S(=O)(=O)c2ccc(F)cc2)O1)N[C@H]1CCN(Cc2ccccc2)C1
→ ., ., ., ., 10, .
- C[C@@H]1CN([C@@H](C)CO)C(=O)c2cc(C#CCN(C)C)cnc2O[C@H]1CN(C)C(=O)c1cccnc1
→ ., ., ., ., -16, .
- COc1ccc(C(=O)NC(=S)NNC(=O)c2ccncc2)cc1Br
→ ., -4, -5, 99*, -31, -11
- Cc1ccccc1C(=O)NNC(=S)NC(=O)c1ccccc1
→ 13, -3, 17, 98*, ., 9
- O=C(CCc1ccccc1)NNC(=S)NC(=O)c1ccccc1
→ -1, -4, -13, 98*, -59, -1
- Cc1ccc(C(=O)NC(=S)NNC(=O)CCN2CCOCC2)cc1
→ -8, 1, -10, 98*, ., -11
- O=C(NC(=S)NCCN1CCOCC1)c1ccc(F)cc1
→ 34, 2, 1, 4, ., 0
- C[C@@H]1CN([C@@H](C)CO)C(=O)c2cc(-c3cccnc3)cnc2O[C@H]1CN(C)C(=O)C1CCCCC1
→ ., ., ., ., 0, .
- C[C@@H](NC(=O)C[C@H]1C=C[C@H](NC(=O)C2CCC2)[C@@H](CO)O1)c1ccccc1
→ ., ., ., ., -12, .
- Cc1ccc(C(=O)NN2CCOCC2)cc1
→ -16, 0, 7, 98*, -15, 4
- O=C(NN1CCOCC1)c1ccc(Br)cc1
→ ., 2, 1, 15, -23, -8
- CCCCn1c(N)c(N(CC(C)C)C(=O)c2oc3ccc(OCC)cc3c2C)c(=O)[nH]c1=O
→ 36*, -2, 11, 5, -6, 1
- Cc1cc(C2C(C#N)=C(N)SC(N)=C2C#N)c(C)s1
→ -1, -1, 4, 99*, -13, 6
- CCCc1c(C(=O)Nc2ccc(OC)cc2)cnn1-c1ccccc1
→ 32, -2, 22, 9, -1, 2
- CCCc1c(C(=O)NNc2ccccc2OC)cnn1-c1ccccc1
→ 6, 0, 14, 88*, ., 1
- C[C@H](CO)N1C[C@H](C)[C@@H](CN(C)C)Oc2c(NC(=O)CCCCCC(=O)Nc3ccccc3N)cccc2C1=O
→ ., 0, 16, 0, -12, 67*
- C[C@H](CO)N1C[C@H](C)[C@@H](CN(C)Cc2ccccc2)Oc2ccc(NC(=O)CCCCCC(=O)Nc3ccccc3N)cc2C1=O
→ ., -1, 14, -1, 23, 75*
- C[C@@H]1CN([C@@H](C)CO)C(=O)c2cccc(NC(=O)CCCCCC(=O)Nc3ccccc3N)c2O[C@@H]1CN(C)Cc1ccc(Cl)c(Cl)c1
→ ., ., ., ., -1, .
- C[C@@H]1CN([C@H](C)CO)C(=O)c2cccc(NC(=O)CCCCCC(=O)Nc3ccccc3N)c2O[C@H]1CN(C)Cc1ccc(-c2ccccc2)cc1
→ ., ., ., ., -14, .
- C[C@H](CO)N1C[C@H](C)[C@@H](CN(C)Cc2ccncc2)Oc2c(NC(=O)CCCCCC(=O)Nc3ccccc3N)cccc2C1=O
→ ., -2, 5, -3, 20, 57*
- CC(C)c1cn(CC[C@H]2CC[C@@H](NS(=O)(=O)Cc3ccccc3)[C@H](CO)O2)nn1
→ ., ., ., ., -5, .
- CCN1/C(=C/C(C)=C/c2sc3ccccc3[n+]2CC)Sc2ccccc21
→ 8, -3, -45, 99*, 66, 0
- COc1ccc(CNC(=O)Cn2c(=O)oc3ccccc32)cc1OC
→ 43*, 2, 4, -11, ., 4
- O=C(Cn1c(=O)oc2ccccc21)NCCc1ccccc1Cl
→ 42*, 0, 1, 0, -4, -3

Five compounds from above, ordered by the value under MC4R antagonist, lowest first.
Under each structure – NALP1 inh, MC4R ag barr, MC4R antagonist, ALR H2O2 inh, Yeast UUG start, HDAC3 inh
- COc1ccc(C(=O)NC(=S)NNC(=O)c2ccncc2)cc1Br
→ ., -4, -5, 99*, -31, -11
- O=C(NC(=S)NCCN1CCOCC1)c1ccc(F)cc1
→ 34, 2, 1, 4, ., 0
- CCCc1c(C(=O)NNc2ccccc2OC)cnn1-c1ccccc1
→ 6, 0, 14, 88*, ., 1
- Cc1ccccc1C(=O)NNC(=S)NC(=O)c1ccccc1
→ 13, -3, 17, 98*, ., 9
- CCCc1c(C(=O)Nc2ccc(OC)cc2)cnn1-c1ccccc1
→ 32, -2, 22, 9, -1, 2

The list goes on:
Under each structure – NALP1 inh, MC4R ag barr, MC4R antagonist, ALR H2O2 inh, Yeast UUG start, HDAC3 inh
- C[C@H]1CN([C@@H](C)CO)C(=O)c2cc(C#Cc3ccccc3F)cnc2O[C@H]1CN(C)C(=O)c1ccc2c(c1)OCO2
→ ., ., ., ., 17, .
- CC(C)c1ccc(NC(=O)Cc2c(C(=O)O)n(C)c3ccccc23)cc1
→ -1, -1, 11, 97*, -8, 7
- Cc1ccc(NC(=O)Cc2c(C(=O)O)n(C)c3ccccc23)cc1F
→ 20, 0, 22, 14, ., 4
- O=C1NCCCc2c1oc1cc(Br)c(O)c(Br)c21
→ ., -1, 27, 99*, -8, 8
- CC(C)NCc1c(O)c(Br)cc2oc3c(c12)CCCC3
→ 40, 0, -1, ., -12, .
- C[C@@H]1CN([C@H](C)CO)C(=O)c2cc(NC(=O)c3ccccc3)ccc2O[C@@H](C)CCCCO[C@@H]1CN(C)S(=O)(=O)c1ccc(Cl)cc1
→ ., ., ., ., -14, .
- CCNC(=S)NNC(=O)c1nn(C)c(C)c1Cl
→ -26, -2, 3, 11, ., 0
- Cc1c(Cl)c(C(=O)NNC(=S)Nc2ccc(F)cc2)nn1C
→ 4, -2, 4, 81*, -42, 7
- Cc1c(Cl)c(C(=O)NNC(=S)Nc2ccccc2)nn1C
→ 11, -2, -7, 91*, -35, -3
- COC(=O)c1ccc2c(c1)C(C)(C)C(/C=C/c1ccccc1O)=[N+]2C
→ 1, -6, -3, 87*, ., 15
- C[C@@H]1CCCCO[C@@H](CN(C)S(=O)(=O)c2ccc(F)cc2)[C@H](C)CN([C@H](C)CO)C(=O)c2cc(NC(=O)Nc3ccc(F)cc3)ccc2O1
→ ., ., ., ., -19, .
- O=C(c1cccc(Cl)c1)c1nn(-c2ccccc2)c(=O)cc1C(F)(F)F
→ -15, 8.5*, -5, 20, -5, 8
- CC(C)(C)c1nnc2sc(SCC(=O)c3ccc(Cl)cc3)nn2c1=O
→ 26, -1, 4, ., -14, 12
- CC(C)(C)c1nnc2sc(SCC(=O)N3CCCc4ccccc43)nn2c1=O
→ 11, -2, 5, 99*, -8, 13
- Cc1ccc(C(=O)CSc2nn3c(=O)c(C(C)(C)C)nnc3s2)cc1
→ -17, 0, 21, 98*, -7, -1
- CC(C)(C)c1nnc2sc(SCC(=O)c3ccc4c(c3)OCCO4)nn2c1=O
→ 11, 1, 0, ., -1, .
- CC(C)(C)c1nnc2sc(SCC(=O)c3cccs3)nn2c1=O
→ 8, 1, 4, 98*, -19, 5
- CN1C(=O)c2cc(NC(=O)C3CC3)ccc2OC[C@@H]2O[C@@H](CC(=O)NC3CCC3)CC[C@@H]21
→ ., ., ., ., -3, .
- CCC(=O)Nc1ccc2c(c1)C(=O)N(C)[C@@H]1CC[C@@H](CC(=O)O)O[C@@H]1CO2
→ ., ., ., ., -13, .
